A selection: hits, their analogues and other compounds. The true share with any hit is near 2.2%.
Nrf2 block = Nrf2 pathway inhibition; A549 ARE-Fluc reporter, luciferase luminescence, 18-24 h; Potency, µM (titrated, usually from 46 µM), for inactives: at the highest dose activity change, negative = inhibition, usual class: inhibitors; 360,000 tested, 2.1% active; AID 504444; note: potency is the fitted concentration of half-maximal effect; % is set by controls: 0 for no effect and ±100 for the full control effect; nearly all actives have a fitted effect of over 60% in size
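A549 ARE_Fluc cells (5000/well, 5% FBS OPTI-MEM) pre-incubated 2 h, then treated with compounds 18-24 h at 37C/5% CO2 in concentration-response. CellTiter-Fluor viability read first; BugLite luciferase luminescence after 15 min at room temperature gives Nrf2 activity.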
GALK inh = blocks human galactokinase activity | P51570 | Purified GALK, Kinase-Glo residual ATP luminescence | Potency, µM (top dose mostly 57.5 µM), without a hit: at the top dose activity change, negative = inhibition, most hits filed as inhibitors | 270,000 tested, 0.007% active | AID 1868; note: potency is the fitted concentration of half-maximal effect; % is set by controls: 0 for no effect and ±100 for the full control effect
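Kinase-Glo Plus luminescence measured ATP left after a 1 h room-temperature reaction. The reaction used 5 nM GALK, 100 uM galactose and 35 uM ATP at pH 8.0 (20 mM HEPES, 5 mM MgCl2, 60 mM NaCl, 1 mM DTT, 0.01% BSA).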
PI4K2A block = inhibitors of human PI4K2A. Q9BTU6. purified PI4K2A, ADP-Glo luminescence, 1 h; active compounds read low. activity change, negative = inhibition, % at 76.9 µM. 420,000 tested, 0.13% active. AID 1346378; in the data active = activity change below about -50%; inconclusive = mostly about -30% to -49%;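 note: -100% = wells without enzyme as full effect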
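ADP-Glo luminescence measured ADP generated by PI4K2A enzyme (4 ug/mL before mixing) with 1.2 mM PI substrate (pre-mix) and 300 microM ATP (pre-mix). Tris pH7.5 buffer with MgCl2, Triton X-100; 1 h reaction at ambient temperature.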
A549 viability = counter-screen for Nrf2 inhibitors: cytotoxicity in A549 cells; A549 ARE-Fluc cells, CellTiter-Fluor viability, 18-24 h; AID 504648; 390,000 tested, 0.16% active; Potency, µM (titrated, usually from 46 µM), without a hit: top-dose activity change, negative = cytotoxicity, most hits filed as inhibitors; note: potency is the fitted concentration of half-maximal effect; % is set by controls: 0 for no effect and ±100 for the full control effect
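Cytotoxicity counterscreen: CellTiter-Fluor fluorescence was measured in A549 ARE_Fluc cells after 18-24 h of compound exposure in a concentration series. The subsequent BugLite luminescent read reports ARE-luciferase activity.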
miR-21 reporter = miR-21 reporter, rising signal; HeLa miR-21 FLuc reporter, luciferase, 48 h; Potency, µM (titrated, usually from 38.3 µM), without a hit: top-dose reporter change, positive = more light; AID 2288; 340,000 tested, under 10 active; active = well fitted rising curve with a large enough effect; inconclusive = small, poorly fitted or top-dose-only effect; inactive = no such curve, though single readings can be large or run the other way;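 further: % of control where 0% means no effect; miR-21 action dims this reporter so a rising signal means less miR-21 action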
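Using DMEM plus 10% FBS, HeLa miR-21-FLuc cells are incubated with test compounds (final up to about 40uM) for 48 hours; firefly luciferase signal is then imaged following reagent-mediated lysis.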
Nrf2 ARE act = activators of Nrf2 (ARE) signaling; AREc32 ARE-luciferase reporter (MCF7-derived line), luminescence, 24 h; Potency, µM (titrated, usually from 46.1 µM), inactives show top-dose activation, hits mostly activators; 410,000 tested, 0.31% active; AID 624171; note: potency is the fitted concentration of half-maximal effect; % of control where 0% means no effect; nearly all actives have a fitted effect of over 65% in size
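AREc32 cells carrying an ARE-driven firefly luciferase reporter were seeded at 1000 cells/well in OPTI-MEM with 5% FBS, then exposed to compound for 24 hr at 37 deg C. Luminescence was read with Steady-Glo after 30 min at RT.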
* marks the source's active call; other numbers are inactive results; ? = inconclusive; . = no result; ! = repeats disagree. Unless noted, calls come from the whole dose curve; as a rule, active = well fitted curve in the direction sought with a large enough effect; inconclusive = small, poorly fitted or top-dose-only effect, or another doubt; inactive = no such curve, though single readings can be large; an effect the other way counts as inactive or inconclusive.

The first 6 records as a preview:
SMILES	Nrf2 block	GALK inh	PI4K2A block	A549 viability	miR-21 reporter	Nrf2 ARE act
CC(C)(C)c1ccc(OCC(O)CSc2ncn[nH]2)cc1 (stereo not drawn)	15µM*	2%	0	0%	27%	-1%
COc1cc(OC)cc(C2=Nn3c(nnc3-c3cccc(OC)c3)SC2)c1	-30%	.	.	-4%	.	.
O=C1OCCC1Sc1nnc(-c2ccc(Cl)cc2Cl)o1 (stereo not drawn)	9.2µM*	0%	5	10%	26%	-2%
O=C1OCCC1Sc1nnc(-c2ccccc2)o1 (stereo not drawn)	-10%	3%	1	-7%	9%	-1%
Cc1c(Cl)cccc1NC(=O)Nc1nnc(N(C)C2CCCCC2)s1	18µM*	.	-2	-2%	21%	0%
CCN(CC)CC(=O)Oc1ccc(NC(C)=O)cc1	.	.	-2	.	.	.

Main list, repeating the preview:
SMILES	Nrf2 block	GALK inh	PI4K2A block	A549 viability	miR-21 reporter	Nrf2 ARE act
CC(C)(C)c1ccc(OCC(O)CSc2ncn[nH]2)cc1 (stereo not drawn)	15µM*	2%	0	0%	27%	-1%
COc1cc(OC)cc(C2=Nn3c(nnc3-c3cccc(OC)c3)SC2)c1	-30%	.	.	-4%	.	.
O=C1OCCC1Sc1nnc(-c2ccc(Cl)cc2Cl)o1 (stereo not drawn)	9.2µM*	0%	5	10%	26%	-2%
O=C1OCCC1Sc1nnc(-c2ccccc2)o1 (stereo not drawn)	-10%	3%	1	-7%	9%	-1%
Cc1c(Cl)cccc1NC(=O)Nc1nnc(N(C)C2CCCCC2)s1	18µM*	.	-2	-2%	21%	0%
CCN(CC)CC(=O)Oc1ccc(NC(C)=O)cc1	.	.	-2	.	.	.
CN1C(=O)Cc2cc([S+](=O)([O-])N3CCN([S+](=O)([O-])c4c(F)cccc4F)CC3)ccc21	15%	.	.	-8%	.	.
C=CCNC(=S)N/N=C(\C)c1ccccn1	0.58µM*	1%	-8	?	?	?
CC(=NNC(=S)Nc1ccccc1)c1ccccn1	.	.	2	.	.	4%
C[C@H]1[C@@H](OC(=O)NCCc2ccccc2)CC[C@@]23CCCN2C(=O)CCC[C@@H]13	.	.	-4	.	.	.
Cc1ccc(SCCNC(=O)c2ccc(C)c(S(=O)(=O)Nc3cccc(C)c3)c2)cc1	?	-2%	-5	?	19%	3%
Cc1ccc(NS(=O)(=O)c2cc(C(=O)NCCSc3ccc(C)cc3)ccc2C)cc1	23µM*	6%	-1	-22%	21%	0%
Cc1ccc(C(=O)NCCSc2ccc(Cl)cc2)cc1S(=O)(=O)Nc1ccccc1	15µM*	.	2	?	22%	3%
COc1ccc([S+](=O)([O-])N2CCN([S+](=O)([O-])c3ccc4c(c3)OCCO4)CC2)c(OC)c1	-8%	.	.	1%	.	.
CCn1nc(C(=O)NNC(=O)c2ccccc2)c2ccccc2c1=O	?	.	1	1%	.	16µM*
COc1ccc2cc(-c3cc(C(=O)OCC(=O)NC4CCS(=O)(=O)C4)c4ccccc4n3)ccc2c1 (stereo not drawn)	12µM*	1%	-8	3%	11%	0%
CCN(CC)C(=O)COC(=O)c1cc(-c2ccc(OC)cc2)nc2ccccc12	23µM*	-1%	1	-23%	-1%	3%
O=C(NCc1ccc(Cl)cc1)O[C@H]1CC[C@@]23CCCN2C(=O)CCC[C@H]3C1	.	.	4	.	.	.
Cn1c(N/N=C/c2cccs2)cc(=O)n(C)c1=O	5%	2%	?	-8%	-19%	7.9µM*
Cn1c(=O)c2c(nc(N/N=C/c3cccs3)n2C)n(C)c1=O	-8%	-3%	5	1%	-3%	5%
CC1(C)C2CCC1(C)C(NC(=O)COC(=O)c1ccc(S(C)(=O)=O)c([N+](=O)[O-])c1)C2 (stereo not drawn)	?	.	.	4%	.	.
Fc1ccc(-c2n[nH]c(=S)n2N=Cc2ccc(-c3ccccc3)cc2)cc1	.	.	3	.	.	.
C=C1C(=O)[C@@]23[C@H](O)C[C@@H]4C(C)(C)CC[C@H](O)[C@]4(C)[C@@H]2C[C@H](O)[C@@H]1[C@H]3O	15µM*	.	-3	?	?	-2%
C[C@H]1C(=O)[C@]23C[C@H]1CC[C@H]2[C@]1(C)[C@@H](O)CC[C@@](C)(C(=O)O)[C@H]1C[C@@H]3O	.	.	6	.	.	.
C=C1[C@@H]2CC[C@H]3[C@]4(C)[C@@H](O)CC[C@@](C)(C(=O)OC)[C@H]4C[C@H](O)[C@]3(C2)[C@H]1O	.	.	2	.	.	.
C=C1C(=O)[C@@]23[C@H](O)C[C@@H]4C(C)(C)CC[C@H](O)[C@@]4(C)[C@@H]2CC[C@@H]1[C@H]3O	18µM*	.	-13	?	29%	-3%
N#Cc1ccccc1N1CCN(S(=O)(=O)c2ccc3c(c2)CCC(=O)N3)CC1	.	.	-1	.	.	.
Cc1ccc(-c2cc(-c3ccco3)c3c(N)c(C(=O)NN)oc3n2)cc1	8.2µM*	5%	3	-19%	17%	5%
NNC(=O)c1oc2nc(-c3cccs3)cc(-c3ccco3)c2c1N	.	10%	.	.	14%	.
Cc1c(C(=O)NCc2cccnc2)oc2ccc(S(=O)(=O)N3CC(C)CC(C)C3)cc12 (stereo not drawn)	-5%	0%	0	0%	-4%	0%
Cc1c(C(=O)Nc2ccc(F)cc2)oc2ccc(S(=O)(=O)N3CC(C)CC(C)C3)cc12 (stereo not drawn)	7.3µM*	-1%	-3	-15%	15%	0%
O=C1C[C@H](c2ccc3ccccc3c2)N=C2N1/C(=C\c1ccccc1)[C@@H](c1ccccc1C(F)(F)F)N2Cc1ccc2c(c1)OCO2	.	.	1	.	.	.
CCOc1ccc(-n2c(N)c(C(=O)NCc3ccco3)c3nc4ccccc4nc32)cc1	21%	2%	?	6%	-6%	11µM*
CCOC(=O)C(=O)CCc1ccccc1	.	.	-2	.	.	.
Cc1ccc(NC(=O)Nc2ccc3c(c2)N(C)C(=O)c2ccccc2S3)c(C)c1	-7%	.	-1	-9%	2%	0%
CN1C(=O)c2ccccc2Sc2ccc(NC(=O)Nc3ccccc3F)cc21	21µM*	.	3	-8%	?	1%
C[C@H]1O[C@@H](O[C@H]2CC[C@@]3(C)[C@H](CC[C@@H]4[C@@H]3C[C@@H](O)[C@]3(C)[C@@H](C5=CC(=O)OC5)CC[C@]43O)C2)C[C@H](O)[C@@H]1O[C@H]1C[C@H](O)[C@H](O[C@H]2C[C@H](O)[C@H](O[C@@H]3O[C@H](CO)[C@@H](O)[C@H](O)[C@H]3O)[C@@H](C)O2)[C@@H](C)O1	.	.	0	.	.	.
CS(=O)(=O)c1ccc(CNC(=O)C2(C(F)(F)F)C/C(=C\Cc3ccccc3)CCCO2)cc1 (stereo not drawn)	18µM*!	.	0	9%	.	4%
COc1ccccc1NC(=O)C(C)OC(=O)/C=C/c1ccc2ccccc2n1 (stereo not drawn)	2%	.	-7	2%	.	18µM*
CC(OC(=O)/C=C/c1ccc2ccccc2n1)C(=O)N(C)c1ccccc1 (stereo not drawn)	-4%	.	10	-5%	.	0%
CN(C)S(=O)(=O)c1cccc(-c2nn(-c3ccccc3)cc2/C=C2\SC(=S)NC2=O)c1	16µM*	-10%	-7	?	-26%	4%
